Data taken from patent US5879896A, “Method of screening for inhibitors of human thyrotropin releasing hormone (TRH) receptor” (Takeda Chemical Industries, Ltd., priority 1993, dated 1999).

Columns and labels:
human TRH receptor [1] = molecular target: T1, human TRH receptor (Homo sapiens, UniProt P34981); assay: Antagonism of [3H]TRH binding in CHO dhfr- cells transformed with human TRH receptor DNA (Examples 5 and 6); parameters: translation frame (open reading frame) of the human TRH receptor was constructed on pUC118; expressed in transfected cells; host or cells: CHO dhfr- cells (plasmid pAKKO1.11 with the human TRH receptor open reading frame); settings: 10 nM [3H]TRH, 60 min
T1 sequence (P34981 1-398): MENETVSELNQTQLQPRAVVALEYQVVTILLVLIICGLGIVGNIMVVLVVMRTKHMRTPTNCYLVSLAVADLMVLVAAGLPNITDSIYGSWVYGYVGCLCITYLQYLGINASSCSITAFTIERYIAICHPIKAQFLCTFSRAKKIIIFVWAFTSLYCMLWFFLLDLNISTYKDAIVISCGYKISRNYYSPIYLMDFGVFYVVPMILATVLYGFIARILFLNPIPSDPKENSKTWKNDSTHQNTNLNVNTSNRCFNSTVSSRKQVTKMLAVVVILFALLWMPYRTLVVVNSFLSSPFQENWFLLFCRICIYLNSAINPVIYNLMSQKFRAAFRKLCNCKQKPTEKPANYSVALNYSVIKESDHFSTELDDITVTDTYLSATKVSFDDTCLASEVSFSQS

human TRH receptor [2] = molecular target: T1, human TRH receptor; assay: Release of [3H]-labeled arachidonic acid from CHO cells into which human TRH receptor DNAs were introduced (Example 7); assay type: cell-based; parameters: translation frame (open reading frame) of the human TRH receptor was constructed on pUC118; expressed in transfected cells; host or cells: CHO dhfr- cells (plasmid pAKKO1.11 with the human TRH receptor open reading frame)
Experimental: CHO cells into which the human TRH receptor DNAs obtained in Example 4 were subcultured at a density of 1.0×10^6 cells/well to a 12-well tissue culture plate (Sumitomo Bakelite) and cultivated for 24 hours. The medium was removed and replaced by a fresh medium. Then, [^3 H] […] arachidonic acid (du Pont/NEN, specific activity: 60-100 Ci/mmol) was added to give a concentration of 0.5 μCi/well. After addition of arachidonic acid, the cells were further cultivated for 24 hours, and washed three times with Hanks' balanced salt solution (HBSS) supplemented with 0.05% BSA. Thereafter, 495 μl/well of HBSS supplemented with 0.05% BSA was added thereto. Then, 5 μl of a test solution was added thereto, and incubation was conducted for 30 minutes at room temperature to release arachidonic acid in the medium. HBSS (400 μl) of the supernatant was recovered, and mixed with liquid scintillator A (Wako Pure Chemical Industries). The amount of released [^3 H]-labeled arachidonic acid was measured by use of a liquid scintillation counter (Beckmann).
Further, in the receptor binding experiment of Example 6, the releasing activity of arachidonic acid was measured using 4 kinds of compounds strongly that can antagonize the binding of [^3 H] TRH (compound Nos. 10, 13, 16 and 18).

Antagonistic Rate (%) at Each Concentration (-log M) (human TRH receptor [1]; -log M = 3, 1000 µM) | Antagonistic Rate (%) at Each Concentration (-log M) (human TRH receptor [1]; -log M = 4, 100 µM) | Antagonistic Rate (%) at Each Concentration (-log M) (human TRH receptor [1]; -log M = 5) | Antagonistic Rate (%) at Each Concentration (-log M) (human TRH receptor [1]; -log M = 6, 1 µM) | Antagonistic Rate (%) at Each Concentration (-log M) (human TRH receptor [1]; -log M = 8) | Antagonistic Rate (%) at Each Concentration (-log M) (human TRH receptor [1]; -log M = 9, 0.001 µM) | Antagonistic Rate (%) at Each Concentration (-log M) (human TRH receptor [1]; -log M = 10, 0.0001 µM) | Antagonistic Rate (%) at Each Concentration (-log M) (human TRH receptor [1]; -log M = 7, 0.1 µM) | Substance | Releasing activity of arachidonic acid, in words (human TRH receptor [2]; 10 μM, 30 minutes, room temperature (FIG. 11)) | Agonist activity to the human TRH receptor, in words (human TRH receptor [2]; concluded from arachidonic acid release at 10 μM)
99.4% | 95.8% | 72.8% | 33.8% | 4.9% | 6.4% | 5.3% | 7.6% | Blc His Pro NMBu [Compound 9] |  | 
99.6% | 99.8% | 79.8% | 45.4% | 1.1% | 6.6% | 6.6% | 11.9% | Otc His Pro NHMe [Compound 11] |  | 

The next lines start with the substance.

Substance | Antagonistic Rate (%) at Each Concentration (-log M) (human TRH receptor [1]; -log M = 3, 1000 µM) | Antagonistic Rate (%) at Each Concentration (-log M) (human TRH receptor [1]; -log M = 4, 100 µM) | Antagonistic Rate (%) at Each Concentration (-log M) (human TRH receptor [1]; -log M = 5) | Antagonistic Rate (%) at Each Concentration (-log M) (human TRH receptor [1]; -log M = 6, 1 µM) | Antagonistic Rate (%) at Each Concentration (-log M) (human TRH receptor [1]; -log M = 8) | Antagonistic Rate (%) at Each Concentration (-log M) (human TRH receptor [1]; -log M = 9, 0.001 µM) | Antagonistic Rate (%) at Each Concentration (-log M) (human TRH receptor [1]; -log M = 10, 0.0001 µM) | Antagonistic Rate (%) at Each Concentration (-log M) (human TRH receptor [1]; -log M = 7, 0.1 µM) | Releasing activity of arachidonic acid, in words (human TRH receptor [2]; 10 μM, 30 minutes, room temperature (FIG. 11)) | Agonist activity to the human TRH receptor, in words (human TRH receptor [2]; concluded from arachidonic acid release at 10 μM)
Blc His Pro NH2 [Compound 5] | 98.9% | 89.9% | 54.0% | 12.2% | -2.2% | -0.8% | -2.1% |  |  | 
Blc His Pro NHMe [Compound 8] | 79.8% | 35.1% | 4.6% | 0.7% | 6.7% | 4.7% | 6.1% | 4.8% |  | 
Blc His Pro [Compound 7] |  | 0.7% | -0.1% |  |  |  |  |  |  | 
Kpc His Pro NHBu [Compound 10] |  |  |  |  |  |  |  |  | promoted releasion of arachidonic acid at a concentration of 10 μM similarly to TRH | agonist activity to the human TRH receptor
pGlu His (EH; N-terminal pyroglutamic acid (pGlu)) [Compound 1] |  | -6.7% | -2.6% |  |  |  |  |  |  | 
